Measured values: publication PMC8219027, “A small-molecule inhibitor of the BRCA2-RAD51 interaction modulates RAD51 assembly and potentiates DNA damage-induced cell death” (Cell Chemical Biology, 2021)

Molecular target: ChimRAD51 (Homo sapiens, UniProt Q06609)
Details: read-out: Kd by FP against ChimRAD51; competition with labelled BRC4 repeat

Row | SMILES | Kd [µM]
1 | CSCC[C@H](NC(=O)[C@@H]1CCCN1C(=O)[C@@H](N)C(C)C)C(=O)NCC(=O)N[C@@H](Cc1ccccc1)C(=O)N[C@H](C(=O)N[C@H](C(=O)N[C@@H](C)C(=O)N[C@H](C(=O)N[C@@H](CCC(=O)O)C(=O)N[C@@H](Cc1ccccc1)C(=O)N[C@@H](Cc1c[nH]cn1)C(=O)N[C@@H](CCC(N)=O)C(=O)N[C@@H](CCCNC(=N)N)C(=O)N[C@@H](CCCNC(=N)N)C(=O)N[C@@H](CO)C(=O)O)[C@@H](C)O)[C@@H](C)O)[C@@H](C)O | 18
2 | CC(C)C[C@H](NC(=O)[C@H](CC(C)C)NC(=O)[C@@H](NC(=O)[C@@H]1CCCN1)[C@@H](C)O)C(=O)NCC(=O)N[C@@H](Cc1ccccc1)C(=O)N[C@@H](Cc1c[nH]cn1)C(=O)N[C@H](C(=O)N[C@@H](C)C(=O)N[C@@H](CO)C(=O)NCC(=O)N[C@@H](CCCCN)C(=O)N[C@@H](CCCCN)C(=O)N[C@H](C(=O)O)C(C)C)[C@@H](C)O | 36
